Earlier results in patent US7875460B2, “Method for determining the effectiveness of stabilized chlorine dioxide in a mouth rinse” (priority 2007, dated 2011).

Tested on: humans
Settings: 197 humans, three months, mean chlorite 10.3 mg/day, range 0-39.4 mg/day

Question: For chlorite, which “adverse effects by hematologic serum chemistry measurements” value is on record?
Answer: failed to show any significant adverse effects
